# Binding of CDR-mutated scFvs to a peptide of the spike HR2 region

Data: MIT Lincoln Laboratory AlphaSeq set, Engelhart et al. 2022, doi:10.1038/s41597-022-01779-4, as distributed in FLAb.

Target: peptide PDVDLGDISGINAS, taken from heptad repeat 2 (HR2) of SARS-CoV-2 spike.

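Phage display of a naive human antibody library on the peptide gave the parent. Variants in AAYL51 differ from the parent at up to three CDR positions; double and triple changes were sampled at random. In AlphaSeq, yeast of one mating type display the scFv and yeast of the other type display the target. After mating in shaken culture at 30 °C for 16 h, diploids were selected and their barcode pairs sequenced. A regression on co-assayed BCL2-family reference pairs converts the normalised counts of each replicate to an apparent Kd. The assay was run in three technical replicates.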

Parent scFv Ab-91: VL joined to VH by the linker GGGGSGGGGSGGGGS. Changes lie in the heavy chain CDRs alone.
VL: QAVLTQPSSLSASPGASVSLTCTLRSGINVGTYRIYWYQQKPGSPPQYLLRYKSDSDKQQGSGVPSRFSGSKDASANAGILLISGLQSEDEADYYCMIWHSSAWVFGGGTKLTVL
VH: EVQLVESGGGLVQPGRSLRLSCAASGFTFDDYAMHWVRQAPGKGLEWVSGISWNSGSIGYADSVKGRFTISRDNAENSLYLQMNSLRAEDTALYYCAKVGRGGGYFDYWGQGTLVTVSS

The parent's heavy chain CDRs are GFTFDDYAMH, GISWNSGSIGYADSVK, VGRGGGYFDY; each variant's own CDRs replace them letter for letter. The read-out is the apparent dissociation constant on a log10 scale (nM): the lower, the stronger. The mean shown is taken over the replicates in which the pair was detected. An entry "n.d." has no value in the source: the pair was not observed among the diploids in that replicate. This suggests poor binding but is not conclusive. For reference, the parent read 1.86 as the reference entry and 0.88 as a member of this library.

CDR-H1,CDR-H2,CDR-H3,"replicates, log10 nM","mean, log10 nM",control signals
GCTFDDWAMH,GISWNSGSIGYADSVK,EGRGGGYFDY,n.d. n.d. n.d.,n.d.,1/9 (2.94)
GFTFEDYAMH,GIRWNSGSIGYADSVK,VGRGGGYFDQ,n.d. n.d. n.d.,n.d.,0/9
GFTFDDYAME,GISWNSTSIGYADSCK,VGRGGGYFDY,3.60 n.d. n.d.,3.60,2/9 (4.93)
GFTFDDYAMH,GISWNHRMIGYADSVK,VGRGGGYFDY,n.d. n.d. n.d.,n.d.,2/9 (4.06)
GFTFNDYAMH,GWSWNSGSIGYADSVK,MGRGGGYFDY,4.53 n.d. n.d.,4.53,6/9 (4.88)
GFTFDKYAMH,GISWGTGSIGYADSVK,VGRGGGYFDY,2.50 2.35 2.28,2.38,2/9 (4.08)
GFTFDPYAMH,GISWASGSIGYADSVK,VGRGGGYFDY,n.d. n.d. n.d.,n.d.,0/9
GFTADDYAEH,GISWNSGSIGYADSVK,VGRGGWYFDY,4.12 n.d. n.d.,4.12,5/9 (4.62)
GFTFDDYAMH,GISWNPGSIGYADSDK,FGRGGGYFDY,4.71 n.d. n.d.,4.71,1/9 (4.88)
GFTFDDYWMH,GISWNSISIGYADSVC,VGRGGGYFDY,5.00 3.77 n.d.,4.39,1/9 (3.45)
GDTFDDYAMH,GISWNSGSIGYADSVK,YGRGGGYFFY,n.d. n.d. n.d.,n.d.,1/9 (4.15)
GFTSDDYAMH,EISWNSGSIGYADSVK,VSRGGGYFDY,5.49 5.13 n.d.,5.31,2/9 (4.83)
GFTFSDYACH,GISWNSGSIGYADSVK,VGRGGGMFDY,n.d. n.d. n.d.,n.d.,1/9 (3.79)
GFTFDKYAMH,GISWNSGSIGYADSSK,VVRGGGYFDY,n.d. n.d. n.d.,n.d.,0/9
GFTFDDHAMH,GISWNSGSINYADSVK,QGRGGGYFDY,4.78 n.d. 5.81,5.30,5/9 (5.16)
YFTFDDYAMH,GICWNSGSIGYADSVK,VGRSGGYFDY,4.14 n.d. n.d.,4.14,0/9
GLTFDDYAMH,GVSWNSGSIGYADSVK,VGRGGGYFRY,5.21 4.13 n.d.,4.67,7/9 (4.64)
GFTFDDYAMH,GIEWFSISIGYADSVK,VGRGGGYFDY,n.d. n.d. 3.73,3.73,3/9 (4.35)
GFTFDDGAMH,GISWNSGSIGYADSVK,VGRRGGYFDY,4.53 6.69 n.d.,5.61,4/9 (4.99)
GWTFDDAAMH,GISWNSGSIGYADSVK,VGSGGGYFDY,n.d. n.d. n.d.,n.d.,1/9 (4.01)
GFTFDDYAMH,GISTNSGSIGYAFSVK,WGRGGGYFDY,n.d. n.d. n.d.,n.d.,0/9
GFTFDDYAMH,GISWNSGSIAYADSLK,VGRGGGYFAY,n.d. n.d. n.d.,n.d.,0/9
GFTFDDYAMH,GISWFSGSIGYADSVK,VGRGGGLFDE,4.66 5.35 5.44,5.15,4/9 (4.46)
GFMFDDYAVH,GISWNSGSIGYADSVK,VGRGRGYFDY,n.d. n.d. n.d.,n.d.,1/9 (3.80)
GFTFDDVARH,GISWNSGSIGYADSVD,VGRGGGYFDY,5.20 n.d. n.d.,5.20,1/9 (4.76)
SFTFLDYAMH,GISWNSGSIGYADSVK,VGRGGGYFAY,n.d. n.d. n.d.,n.d.,1/9 (3.25)
GDTFDDYAQH,TISWNSGSIGYADSVK,VGRGGGYFDY,n.d. n.d. n.d.,n.d.,1/9 (4.09)
GFTFDDYAMH,GISWNSGSIGRTDSVK,VGRGGGYFDC,n.d. 4.92 5.21,5.07,3/9 (4.51)
GFTFDDYAMH,GISWNSGSIGYRDNVK,VGRGGHYFDY,n.d. n.d. n.d.,n.d.,0/9
GFTFNDYAMH,GISWNSGSIGYADSVK,VGRGGGYFVY,n.d. n.d. n.d.,n.d.,2/9 (5.83)
GFTFDYYAMH,GISWNSGSIGYADSVK,VGRGGGYGLY,5.39 5.30 4.95,5.22,2/9 (4.77)
GFTFDDYAMH,GIVWNSGSIGDADSVK,VGRGGGYKDY,n.d. n.d. n.d.,n.d.,1/9 (6.01)
GFTHDDYAMH,GISWNSGSIGYVDSVK,GGRGGGYFDY,n.d. n.d. n.d.,n.d.,3/9 (4.82)
GFTFDDYAMH,GISWNSGSIGCADSQK,VGRGGGYFDY,n.d. n.d. n.d.,n.d.,0/9
GFTFDDYAMH,GIPWNSGSIGYADSVK,VGRDGGFFDY,n.d. 5.60 n.d.,5.60,0/9
GFVFDDIAMT,GISWNSGSIGYADSVK,VGRGGGYFDY,n.d. n.d. 4.44,4.44,0/9
GFTFDDYAMH,GISWNSGSCGRADKVK,VGRGGGYFDY,3.99 n.d. n.d.,3.99,1/9 (4.39)
GFTFDDYAMH,GISWNSGSDGYADSVT,VGRGGGYLDY,1.60 1.52 1.11,1.41,1/9 (5.74)
GFTFDDYAMH,GISWNSGSIGYADSVK,VGDPGGYFDA,3.95 4.98 n.d.,4.47,4/9 (4.02)
GFTFDDYAMH,GISWNSGSIGYADSVK,VGRGGGDFDY,1.06 0.87 0.26,0.73,1/9 (3.10)
GFTFDDYAMH,WISWNSFSIGYADSVK,VFRGGGYFDY,4.84 4.72 5.58,5.04,6/9 (4.89)
GFTFDDYASH,GISWNSGSIGYADVVK,VGRGGGYFDY,n.d. n.d. n.d.,n.d.,7/9 (4.39)
FFTFDDYIMM,GISWNSGSIGYADSVK,VGRGGGYFDY,4.67 5.39 n.d.,5.03,6/9 (4.63)
GFTFDRYAMH,GISWNSGSEGYADIVK,VGRGGGYFDY,0.52 0.48 -0.34,0.22,2/9 (4.68)
GFTFDDYARH,GISWNSGSIGYYDSVK,VGRGSGYFDY,n.d. n.d. n.d.,n.d.,0/9

Excerpt, the first 7 entries:

{"CDR-H1": "GCTFDDWAMH", "CDR-H2": "GISWNSGSIGYADSVK", "CDR-H3": "EGRGGGYFDY", "replicates, log10 nM": "n.d. n.d. n.d.", "mean, log10 nM": "n.d.", "control signals": "1/9 (2.94)"}
{"CDR-H1": "GFTFEDYAMH", "CDR-H2": "GIRWNSGSIGYADSVK", "CDR-H3": "VGRGGGYFDQ", "replicates, log10 nM": "n.d. n.d. n.d.", "mean, log10 nM": "n.d.", "control signals": "0/9"}
{"CDR-H1": "GFTFDDYAME", "CDR-H2": "GISWNSTSIGYADSCK", "CDR-H3": "VGRGGGYFDY", "replicates, log10 nM": "3.60 n.d. n.d.", "mean, log10 nM": "3.60", "control signals": "2/9 (4.93)"}
{"CDR-H1": "GFTFDDYAMH", "CDR-H2": "GISWNHRMIGYADSVK", "CDR-H3": "VGRGGGYFDY", "replicates, log10 nM": "n.d. n.d. n.d.", "mean, log10 nM": "n.d.", "control signals": "2/9 (4.06)"}
{"CDR-H1": "GFTFNDYAMH", "CDR-H2": "GWSWNSGSIGYADSVK", "CDR-H3": "MGRGGGYFDY", "replicates, log10 nM": "4.53 n.d. n.d.", "mean, log10 nM": "4.53", "control signals": "6/9 (4.88)"}
{"CDR-H1": "GFTFDKYAMH", "CDR-H2": "GISWGTGSIGYADSVK", "CDR-H3": "VGRGGGYFDY", "replicates, log10 nM": "2.50 2.35 2.28", "mean, log10 nM": "2.38", "control signals": "2/9 (4.08)"}
{"CDR-H1": "GFTFDPYAMH", "CDR-H2": "GISWASGSIGYADSVK", "CDR-H3": "VGRGGGYFDY", "replicates, log10 nM": "n.d. n.d. n.d.", "mean, log10 nM": "n.d.", "control signals": "0/9"}

Three control strains display no target. For library AAYL51, 21% of the pairings with them gave a signal, with a median of 4.54 and one signal in twenty below 3.26, so weak values seen in few replicates may be background. For each scFv, signals with the empty controls are counted beside the result, with their mean in brackets.